# Experiments:
# TNBC patients = assay: Neoadjuvant trial of cetuximab with docetaxel (pCR, HER3 IHC); format: in vivo, human
# Experimental: To investigate whether changes in EGFR and HER3 can affect the response to targeted therapy in the clinic, the expression of these receptors was measured in samples from TNBC patients enrolled in two pilot neoadjuvant clinical trials testing the antitumor activity of the anti-EGFR antibodies panitumumab (40 patients) and cetuximab (30 patients) in combination with standard chemotherapy.
# Patient samples: Tumor tissue was fixed in 10%-buffered formalin for 48 h and further embedded in paraffin. Four-micron sections were deparaffinized in xylene and hydrated in graded alcohols. For EGFR detection, the antigen was retrieved by protease treatment (8 min at 37° C.) and the sections further incubated at 37° C. for 1 h with pre-diluted, ready-to-use mouse monoclonal anti-EGFR (clone 3C6, Ventana, Tucson, Ariz.). The antigen-antibody reaction was visualized by UltraView DAB reveal system in a Benchmark XT automated IHC stainer (all from Ventana). For HER3, the antigen retrieval was performed by heating the sections at 97° C. for 20 min in EnVision® Target Retrieval Solution High pH (Dako) in PT-Link apparatus (Dako). […] Both EGFR and HER3 expressions were quantified using an arbitrary scale having 0, 0.5, 1, 1.5, 2, 2.5 and 3 as measures of increasing staining intensity. […]
# EGFR and HER3 = assay: CEER analysis of active and total EGFR and HER3 in xenograft tumors; format: in vivo, mice; details: HCC70 xenografts
# Experimental: The levels of EGFR and HER3 expression/activation in HCC70 tumors collected at the end of the experiments (day 39) was investigated. […] Frozen tissue was analyzed by Cooperative, Enhanced, Enzyme Immunoreactive (CEER), a platform that utilizes reverse-phase detection of nanogram quantities of protein.
# The levels of pathway protein expression and their activation in xenografts were determined by CEER. (Kim et al., ASCO Annual Meeting abstract P2-06-13, (2010)) CEER utilizes the formation of unique immuno-complexes between capture antibodies printed on a nitrocellulose microarray surface, the target molecule in cell lysate reacted with the slide, and two independent detector-antibodies. One of the detector-antibody is conjugated to glucose oxidase, and the other is conjugated to horseradish peroxidase. Target detection (expressed as computational unit, CU) requires the presence of both detector-antibodies and the enzyme channeling event between glucose oxidase and horseradish peroxidase will not occur unless both antibodies are in close proximity.
# HCC70 cells = assay: Heregulin- and EGF-induced proliferation; format: cell-based; details: HCC70 cells stimulated with EGF; antibodies 10 nM, GDC-0068 and GDC-0941 1 uM, 5 days
# Experimental: In order to dissect the roles of HER3 inhibition in these models, the activity of cetuximab, an antibody targeting exclusively EGFR, with MEH[…] in combination with either GDC-0068 or GDC-0941 in HCC70 cells was determined. […] For proliferation, 5×10^5 cells were seeded in 96-well plates and treated with the indicated concentrations of GDC-0068, GDC-0941, and/or MEH[…]. After 5 days, cells were fixed and stained with Crystal Violet. Cell proliferation was also analyzed with CellTiter-Glo Luminescent Cell Viability Assay (Promega) as described by the manufacturer. For heregulin (HRG, Peprotech) and epidermal growth factor (EGF, Peprotech)-induced proliferation, 5×10^5 cells were treated with GDC-0068, GDC-0941, and/or MEH[…] in the presence of 4 ng/ml of ligands for 5 days and then stained with Crystal Violet.
substance,measurement,setting,value
cetuximab: epidermal growth factor receptor (EGFR) antagonist; antibody targeting exclusively EGFR [reference compound],patients who experienced pCR,"TNBC patients; of 30 patients, cetuximab combined with docetaxel",9
same,non-pCR patients with HER3 expression upregulated in residual tumors versus baseline (IHC),TNBC patients; p equals 0.103,11 out of 19
same,EGFR phosphorylation (CEER),EGFR and HER3,blocked EGFR phosphorylation
same,effect on antiproliferative activity mediated by PI3K/Akt inhibition,HCC70 cells,enhanced the antiproliferative activity mediated by PI3K/Akt inhibition

# — patent publication US9566334B2, “Combinations of a PI3K/AKT inhibitor compound with an HER3/EGFR inhibitor compound and use thereof in the treatment of a hyperproliferative disorder” (THE GENERAL HOSPITAL CORPORATION, priority 2012, dated 2017)
